Protein sequences, listed by entry. Tags and fused reporters are not part of them.
UniProt Q8NER1, whole entry: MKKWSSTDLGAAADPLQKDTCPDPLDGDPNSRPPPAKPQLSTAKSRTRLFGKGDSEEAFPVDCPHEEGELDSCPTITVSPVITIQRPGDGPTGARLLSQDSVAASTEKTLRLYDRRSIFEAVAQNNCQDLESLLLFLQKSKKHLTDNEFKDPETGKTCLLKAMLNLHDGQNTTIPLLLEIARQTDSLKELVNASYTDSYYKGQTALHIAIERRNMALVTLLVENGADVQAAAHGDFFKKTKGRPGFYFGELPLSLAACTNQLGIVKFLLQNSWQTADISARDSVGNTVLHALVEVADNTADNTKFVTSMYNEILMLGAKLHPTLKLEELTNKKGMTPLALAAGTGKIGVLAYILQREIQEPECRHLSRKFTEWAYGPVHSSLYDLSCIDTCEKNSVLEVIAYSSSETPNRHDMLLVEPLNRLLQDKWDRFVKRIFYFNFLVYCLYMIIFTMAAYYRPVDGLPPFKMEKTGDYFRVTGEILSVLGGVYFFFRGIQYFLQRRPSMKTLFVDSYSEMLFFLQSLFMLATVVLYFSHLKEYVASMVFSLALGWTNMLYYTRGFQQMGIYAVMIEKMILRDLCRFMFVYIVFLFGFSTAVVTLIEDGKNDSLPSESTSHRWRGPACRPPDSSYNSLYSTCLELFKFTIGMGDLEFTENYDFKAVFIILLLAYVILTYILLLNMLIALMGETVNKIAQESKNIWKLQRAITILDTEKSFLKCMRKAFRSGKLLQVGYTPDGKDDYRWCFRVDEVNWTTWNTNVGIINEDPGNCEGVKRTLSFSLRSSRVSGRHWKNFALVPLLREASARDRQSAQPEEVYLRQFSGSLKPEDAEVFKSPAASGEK
UniProt O75762, whole entry: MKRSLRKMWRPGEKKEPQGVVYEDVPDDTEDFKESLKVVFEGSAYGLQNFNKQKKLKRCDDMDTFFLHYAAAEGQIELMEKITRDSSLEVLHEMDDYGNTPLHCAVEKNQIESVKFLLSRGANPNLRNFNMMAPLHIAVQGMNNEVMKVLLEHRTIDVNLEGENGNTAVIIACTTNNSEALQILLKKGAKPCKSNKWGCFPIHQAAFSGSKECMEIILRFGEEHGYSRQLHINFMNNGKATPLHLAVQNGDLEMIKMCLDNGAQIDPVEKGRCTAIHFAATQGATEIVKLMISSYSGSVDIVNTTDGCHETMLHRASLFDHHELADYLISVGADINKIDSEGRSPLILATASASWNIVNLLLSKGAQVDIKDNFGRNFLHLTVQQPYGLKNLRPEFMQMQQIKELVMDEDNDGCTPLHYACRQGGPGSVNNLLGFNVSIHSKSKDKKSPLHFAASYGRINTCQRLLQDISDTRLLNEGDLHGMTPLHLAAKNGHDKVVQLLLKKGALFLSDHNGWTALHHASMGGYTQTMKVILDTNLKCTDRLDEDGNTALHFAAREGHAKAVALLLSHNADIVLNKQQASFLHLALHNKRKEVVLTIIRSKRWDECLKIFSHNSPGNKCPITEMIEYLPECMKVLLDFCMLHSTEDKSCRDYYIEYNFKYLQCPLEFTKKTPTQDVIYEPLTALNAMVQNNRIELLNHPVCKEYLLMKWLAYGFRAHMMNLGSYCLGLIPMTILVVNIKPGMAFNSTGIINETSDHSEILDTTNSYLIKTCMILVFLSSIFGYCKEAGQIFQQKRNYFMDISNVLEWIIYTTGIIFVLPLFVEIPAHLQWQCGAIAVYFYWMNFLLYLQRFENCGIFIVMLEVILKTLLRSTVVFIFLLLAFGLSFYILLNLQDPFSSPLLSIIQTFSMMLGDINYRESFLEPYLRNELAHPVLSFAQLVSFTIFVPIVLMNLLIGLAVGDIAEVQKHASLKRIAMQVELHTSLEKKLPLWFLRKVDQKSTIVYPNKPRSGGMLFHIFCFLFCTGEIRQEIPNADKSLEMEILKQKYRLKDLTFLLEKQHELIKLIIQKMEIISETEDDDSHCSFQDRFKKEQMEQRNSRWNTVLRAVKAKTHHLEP
UniProt Q15858, whole entry, looked up: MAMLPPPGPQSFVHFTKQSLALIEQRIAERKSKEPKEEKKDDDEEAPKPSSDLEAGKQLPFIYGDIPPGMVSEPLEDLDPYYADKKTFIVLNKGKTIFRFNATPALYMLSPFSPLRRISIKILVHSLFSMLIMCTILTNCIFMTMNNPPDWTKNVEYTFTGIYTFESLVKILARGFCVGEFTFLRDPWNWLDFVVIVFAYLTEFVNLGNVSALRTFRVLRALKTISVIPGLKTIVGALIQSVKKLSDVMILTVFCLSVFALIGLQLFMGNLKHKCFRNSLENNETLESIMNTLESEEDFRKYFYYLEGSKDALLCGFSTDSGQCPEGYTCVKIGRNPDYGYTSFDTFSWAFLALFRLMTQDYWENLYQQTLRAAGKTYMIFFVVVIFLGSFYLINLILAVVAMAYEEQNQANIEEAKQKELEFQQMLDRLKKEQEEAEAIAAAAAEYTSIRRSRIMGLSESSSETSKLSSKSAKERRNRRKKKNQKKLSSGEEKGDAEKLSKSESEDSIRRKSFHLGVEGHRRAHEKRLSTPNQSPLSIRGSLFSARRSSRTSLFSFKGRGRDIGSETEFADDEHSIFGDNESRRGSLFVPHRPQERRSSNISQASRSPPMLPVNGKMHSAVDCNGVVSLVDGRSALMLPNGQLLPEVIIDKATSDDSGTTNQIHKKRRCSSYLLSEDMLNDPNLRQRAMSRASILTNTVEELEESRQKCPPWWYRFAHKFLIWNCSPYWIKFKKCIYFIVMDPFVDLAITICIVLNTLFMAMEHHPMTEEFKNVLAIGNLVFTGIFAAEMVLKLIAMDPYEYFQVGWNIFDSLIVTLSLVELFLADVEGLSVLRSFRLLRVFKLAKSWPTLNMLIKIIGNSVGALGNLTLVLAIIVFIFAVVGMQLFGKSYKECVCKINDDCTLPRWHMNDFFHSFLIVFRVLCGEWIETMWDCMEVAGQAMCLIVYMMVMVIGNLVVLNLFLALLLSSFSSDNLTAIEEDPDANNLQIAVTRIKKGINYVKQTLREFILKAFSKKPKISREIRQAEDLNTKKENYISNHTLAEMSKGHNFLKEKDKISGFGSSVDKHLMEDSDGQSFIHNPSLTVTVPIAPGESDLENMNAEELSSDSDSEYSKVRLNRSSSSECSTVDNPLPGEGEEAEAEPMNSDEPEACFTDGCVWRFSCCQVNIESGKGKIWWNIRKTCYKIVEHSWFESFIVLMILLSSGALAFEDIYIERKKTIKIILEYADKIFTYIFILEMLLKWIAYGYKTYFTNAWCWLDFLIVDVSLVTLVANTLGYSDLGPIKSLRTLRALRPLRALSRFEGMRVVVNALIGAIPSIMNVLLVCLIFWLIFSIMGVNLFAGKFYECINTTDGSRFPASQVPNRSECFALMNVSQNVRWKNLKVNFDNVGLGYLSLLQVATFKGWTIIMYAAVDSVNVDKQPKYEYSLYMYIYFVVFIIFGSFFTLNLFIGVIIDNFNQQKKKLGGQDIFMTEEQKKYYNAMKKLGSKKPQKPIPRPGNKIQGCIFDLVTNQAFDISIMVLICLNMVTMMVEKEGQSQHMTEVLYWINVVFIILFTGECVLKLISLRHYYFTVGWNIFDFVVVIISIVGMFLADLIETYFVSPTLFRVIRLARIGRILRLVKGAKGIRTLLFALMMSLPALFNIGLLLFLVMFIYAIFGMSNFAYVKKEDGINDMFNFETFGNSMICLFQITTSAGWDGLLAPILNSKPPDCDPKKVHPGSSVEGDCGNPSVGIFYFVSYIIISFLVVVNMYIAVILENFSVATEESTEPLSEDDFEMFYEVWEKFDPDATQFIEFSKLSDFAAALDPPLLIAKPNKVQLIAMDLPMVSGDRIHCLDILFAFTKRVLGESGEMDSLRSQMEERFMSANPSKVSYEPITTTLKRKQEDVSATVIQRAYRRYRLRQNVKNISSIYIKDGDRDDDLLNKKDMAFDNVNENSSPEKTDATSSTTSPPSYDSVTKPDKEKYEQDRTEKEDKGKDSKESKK

In ChEMBL document CHEMBL4622981, “Exploration of TRPM8 Binding Sites by β-Carboline-Based Antagonists and Their In Vitro Characterization and In Vivo Analgesic Activities” (J Med Chem, 2020):

Key:
Type in all cases: cell-based
[1] = molecular target: Transient receptor potential cation channel subfamily V member 1 (Homo sapiens) (UniProt Q8NER1); test: Agonist activity at human TRPV1 stably expressed in CHOK1 cells assessed as increase in calcium flux by Fluo-8 NW dye based FLIPR TETRA method; conditions: CHO-K1
[2] = molecular target: Transient receptor potential cation channel subfamily A member 1 (Homo sapiens) (UniProt O75762); test: Antagonist activity at human TRPA1 expressed in HEK293 cells assessed as inhibition of AITC-induced increase in calcium flux by Fluo-8 NW dye based FLIPR TETRA method
[3] = molecular target: Transient receptor potential cation channel subfamily A member 1 (Homo sapiens) (UniProt O75762); test: Agonist activity at human TRPA1 expressed in HEK293 cells assessed as increase in calcium flux by Fluo-8 NW dye based FLIPR TETRA method
[4] = molecular target: Sodium channel protein type 9 subunit alpha (Homo sapiens) (UniProt Q15858); test: Agonist activity at human Nav1.7 expressed in HEK293 cells assessed as increase in calcium flux by FLIPR dye based FLIPR TETRA method
[5] = molecular target: Sodium channel protein type 9 subunit alpha (Homo sapiens) (UniProt Q15858); test: Antagonist activity at human Nav1.7 expressed in HEK293 cells assessed as inhibition of veratridine-induced increase in calcium flux by FLIPR dye based FLIPR TETRA method
[6] = molecular target: Transient receptor potential cation channel subfamily V member 1 (Homo sapiens) (UniProt Q8NER1); test: Antagonist activity at human TRPV1 stably expressed in CHOK1 cells assessed as inhibition of capsaicin-induced increase in calcium flux by Fluo-8 NW dye based FLIPR TETRA method; conditions: CHO-K1

O=C1[C@@H]2Cc3c([nH]c4ccccc34)[C@H](c3ccc(F)cc3)N2C(=O)N1c1cccc(C(F)(F)F)c1
active: Activity [1] | inhibition [2] | Activity [3] | Activity [4] | inhibition [5] | inhibition [6]

O=C1[C@@H]2Cc3c([nH]c4ccccc34)[C@@H](c3ccc(Cl)cc3)N2C(=O)N1Cc1ccc(F)cc1
active: Activity [1] | inhibition [2] | Activity [3] | Activity [4] | inhibition [5] | inhibition [6]

O=C(NCc1ccc(F)cc1)[C@@H]1Cc2c([nH]c3ccccc23)CN1
active: Activity [1] | inhibition [2] | Activity [3] | Activity [4] | inhibition [6]

O=C1N[C@H](Cc2ccccc2)C(=O)N2Cc3[nH]c4ccccc4c3C[C@@H]12
active: Activity [1] | inhibition [2] | Activity [3] | Activity [4] | inhibition [5] | inhibition [6]

COC(=O)CC[C@H]1N[C@H](C(=O)NCc2ccc(F)cc2)Cc2c1[nH]c1ccccc21
active: Activity [1] | inhibition [2] | Activity [3] | Activity [4] | inhibition [5] | inhibition [6]

COC(=O)[C@@H]1Cc2c([nH]c3ccccc23)[C@@H](c2ccccc2)N1Cc1ccccc1
active: Activity [1] | inhibition [2] | Activity [3] | Activity [4] | inhibition [6]

The source made the active and inactive calls.
